Data on one compound can be found in patent publication US6747057B2 (priority 2001, dated 2004).

The structures appear in SMILES notation. pIC50: −log10 of the molar value. Some compounds may have been tested in ways that are not shown here.

For the experiment, the system named is GSK-3. Nature of the experiment: Inhibition of GSK-3 (32P incorporation into GS 1 peptide). Type of experiment: biochemical. The settings on record: read-out: IC50 GSK-3 inhibition; 37° C., 20 minutes, GS 1 peptide 15 μM, ATP 15 μM.

In the case of `O=C(c1ccccc1)C(Cl)Br` (stereo not shown), the negative logarithm of the IC50 (pIC50) (in general, the negative decadic logarithm of the IC50, by convention in mol/L) was 5.30.
